Experimental data: patent publication US12384808B2, “Modulators of TNF-α activity” (Forward Therapeutics, Inc., priority 2022, dated 2025)

Amino acid sequences for entries named in this document (tags omitted). Residues count along the entry.
UniProt P01375, 77-233 limits assumed: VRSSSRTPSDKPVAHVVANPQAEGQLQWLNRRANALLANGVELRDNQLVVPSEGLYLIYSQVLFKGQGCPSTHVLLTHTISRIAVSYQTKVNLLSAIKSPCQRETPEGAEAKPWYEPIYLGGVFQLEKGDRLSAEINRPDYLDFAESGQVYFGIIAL

Target: TNFα (Homo sapiens, UniProt P01375)
Experiment: TNFα Induced HEK Blue Cellular Assay
Format: cell-based
Settings: read-out: IC50 value; HEK Blue TNFα reporter cells, TNFα 100 pg/ml, 24 hrs at 37° C., secreted alkaline phosphatase (QUANTI-Blue) read at 620 nm
Method: TNFα Induced HEK Blue Cellular Assay
Test articles were diluted in DMSO and serially diluted into 384 well assay plate (Corning 3765), at final concentrations ranging from […] to 0.5 nM. HEK Blue™ TNFα reporter cells were added at a final density of 10,000 cell per well in assay media [DMEM (Gibco, cat #21063-029), 10% fetal bovine serum (ExcelBio, cat #FND500), 1% Penicillin-Streptomycin (Solarbio, cat #P1400-100]. TNFα (R&D 210-TA-020/CF) was then added to the assay plate at a final concentration of 100 pg/ml. This plate was then incubated for 24 hrs at 37° C. and 5% CO2. Secreted alkaline phosphatase expression was then measured using QUANTI-Blue™ (Invivogen), according to manufacturer instructions and read on an Envision microplate reader at 620 nm.
Inhibition data for test compound over a range of concentration was plotted as percentage inhibition of the test compound (100%=maximum inhibition). IC50 values were determined after correcting for background [(sample read−mean of low control)/(mean of high control−mean of low control)] where by the low control is DMSO without stimulation and high control is DMSO with stimulation. The IC50 is defined as the concentration of test compound which produces 50% inhibition and was quantified using the 4 parameter logistic equation to fit the data.

SMILES | IC50 [nM]
CN1C(=O)c2cccc(OC(F)F)c2[C@H]2C[C@@H]1c1nc3ccc(-c4ccc(NP(C)(C)=O)nc4)cc3n12 | < 100
CN1C(=O)c2cccc(OC(F)F)c2[C@H]2C[C@@H]1c1nc3ccc(-c4cnc(NP(C)(C)=O)nc4)cc3n12 | < 100
